This assay is filed under the species Rattus norvegicus. The experiment in a line: Selectivity ratio of Ki for rat alpha3beta4 nAChR to Ki for rat alpha4beta2 nAChR.

Where only a bound is given, the exact number is not on record here.

With `COCC[C@H]1C[C@@H]1c1cncc(N2CCCN(C)CC2)c1`, the Ratio Ki was above 10000. Take `COCC[C@H]1C[C@@H]1c1cncc(N2CCCNCC2)c1`: the Ratio Ki was above 10000. On to `COCC[C@@H]1C[C@H]1c1cncc(N2CCCNCC2)c1`, for which the Ratio Ki was above 10000.

Values taken from ChEMBL document CHEMBL3877245 (Eur J Med Chem, 2016).
